{"sequences": {"note": "Chains of the proteins cited; added tags and fusions are not shown.", "UniProt O00255, whole entry": "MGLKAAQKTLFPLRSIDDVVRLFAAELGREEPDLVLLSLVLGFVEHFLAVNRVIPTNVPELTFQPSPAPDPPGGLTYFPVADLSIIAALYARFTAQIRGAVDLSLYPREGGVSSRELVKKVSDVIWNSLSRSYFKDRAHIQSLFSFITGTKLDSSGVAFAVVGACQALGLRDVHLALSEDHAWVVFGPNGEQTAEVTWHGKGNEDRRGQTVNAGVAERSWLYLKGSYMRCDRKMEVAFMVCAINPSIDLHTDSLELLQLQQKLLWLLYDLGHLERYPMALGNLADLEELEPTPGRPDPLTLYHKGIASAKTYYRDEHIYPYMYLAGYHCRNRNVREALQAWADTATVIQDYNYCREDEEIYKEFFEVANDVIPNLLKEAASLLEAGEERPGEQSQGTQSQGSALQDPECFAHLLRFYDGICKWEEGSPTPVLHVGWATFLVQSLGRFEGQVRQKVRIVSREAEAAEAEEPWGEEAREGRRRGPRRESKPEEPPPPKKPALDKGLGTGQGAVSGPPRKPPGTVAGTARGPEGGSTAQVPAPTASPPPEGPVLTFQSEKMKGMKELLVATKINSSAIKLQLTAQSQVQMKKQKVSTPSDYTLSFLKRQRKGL", "UniProt Q03164, whole entry partner": "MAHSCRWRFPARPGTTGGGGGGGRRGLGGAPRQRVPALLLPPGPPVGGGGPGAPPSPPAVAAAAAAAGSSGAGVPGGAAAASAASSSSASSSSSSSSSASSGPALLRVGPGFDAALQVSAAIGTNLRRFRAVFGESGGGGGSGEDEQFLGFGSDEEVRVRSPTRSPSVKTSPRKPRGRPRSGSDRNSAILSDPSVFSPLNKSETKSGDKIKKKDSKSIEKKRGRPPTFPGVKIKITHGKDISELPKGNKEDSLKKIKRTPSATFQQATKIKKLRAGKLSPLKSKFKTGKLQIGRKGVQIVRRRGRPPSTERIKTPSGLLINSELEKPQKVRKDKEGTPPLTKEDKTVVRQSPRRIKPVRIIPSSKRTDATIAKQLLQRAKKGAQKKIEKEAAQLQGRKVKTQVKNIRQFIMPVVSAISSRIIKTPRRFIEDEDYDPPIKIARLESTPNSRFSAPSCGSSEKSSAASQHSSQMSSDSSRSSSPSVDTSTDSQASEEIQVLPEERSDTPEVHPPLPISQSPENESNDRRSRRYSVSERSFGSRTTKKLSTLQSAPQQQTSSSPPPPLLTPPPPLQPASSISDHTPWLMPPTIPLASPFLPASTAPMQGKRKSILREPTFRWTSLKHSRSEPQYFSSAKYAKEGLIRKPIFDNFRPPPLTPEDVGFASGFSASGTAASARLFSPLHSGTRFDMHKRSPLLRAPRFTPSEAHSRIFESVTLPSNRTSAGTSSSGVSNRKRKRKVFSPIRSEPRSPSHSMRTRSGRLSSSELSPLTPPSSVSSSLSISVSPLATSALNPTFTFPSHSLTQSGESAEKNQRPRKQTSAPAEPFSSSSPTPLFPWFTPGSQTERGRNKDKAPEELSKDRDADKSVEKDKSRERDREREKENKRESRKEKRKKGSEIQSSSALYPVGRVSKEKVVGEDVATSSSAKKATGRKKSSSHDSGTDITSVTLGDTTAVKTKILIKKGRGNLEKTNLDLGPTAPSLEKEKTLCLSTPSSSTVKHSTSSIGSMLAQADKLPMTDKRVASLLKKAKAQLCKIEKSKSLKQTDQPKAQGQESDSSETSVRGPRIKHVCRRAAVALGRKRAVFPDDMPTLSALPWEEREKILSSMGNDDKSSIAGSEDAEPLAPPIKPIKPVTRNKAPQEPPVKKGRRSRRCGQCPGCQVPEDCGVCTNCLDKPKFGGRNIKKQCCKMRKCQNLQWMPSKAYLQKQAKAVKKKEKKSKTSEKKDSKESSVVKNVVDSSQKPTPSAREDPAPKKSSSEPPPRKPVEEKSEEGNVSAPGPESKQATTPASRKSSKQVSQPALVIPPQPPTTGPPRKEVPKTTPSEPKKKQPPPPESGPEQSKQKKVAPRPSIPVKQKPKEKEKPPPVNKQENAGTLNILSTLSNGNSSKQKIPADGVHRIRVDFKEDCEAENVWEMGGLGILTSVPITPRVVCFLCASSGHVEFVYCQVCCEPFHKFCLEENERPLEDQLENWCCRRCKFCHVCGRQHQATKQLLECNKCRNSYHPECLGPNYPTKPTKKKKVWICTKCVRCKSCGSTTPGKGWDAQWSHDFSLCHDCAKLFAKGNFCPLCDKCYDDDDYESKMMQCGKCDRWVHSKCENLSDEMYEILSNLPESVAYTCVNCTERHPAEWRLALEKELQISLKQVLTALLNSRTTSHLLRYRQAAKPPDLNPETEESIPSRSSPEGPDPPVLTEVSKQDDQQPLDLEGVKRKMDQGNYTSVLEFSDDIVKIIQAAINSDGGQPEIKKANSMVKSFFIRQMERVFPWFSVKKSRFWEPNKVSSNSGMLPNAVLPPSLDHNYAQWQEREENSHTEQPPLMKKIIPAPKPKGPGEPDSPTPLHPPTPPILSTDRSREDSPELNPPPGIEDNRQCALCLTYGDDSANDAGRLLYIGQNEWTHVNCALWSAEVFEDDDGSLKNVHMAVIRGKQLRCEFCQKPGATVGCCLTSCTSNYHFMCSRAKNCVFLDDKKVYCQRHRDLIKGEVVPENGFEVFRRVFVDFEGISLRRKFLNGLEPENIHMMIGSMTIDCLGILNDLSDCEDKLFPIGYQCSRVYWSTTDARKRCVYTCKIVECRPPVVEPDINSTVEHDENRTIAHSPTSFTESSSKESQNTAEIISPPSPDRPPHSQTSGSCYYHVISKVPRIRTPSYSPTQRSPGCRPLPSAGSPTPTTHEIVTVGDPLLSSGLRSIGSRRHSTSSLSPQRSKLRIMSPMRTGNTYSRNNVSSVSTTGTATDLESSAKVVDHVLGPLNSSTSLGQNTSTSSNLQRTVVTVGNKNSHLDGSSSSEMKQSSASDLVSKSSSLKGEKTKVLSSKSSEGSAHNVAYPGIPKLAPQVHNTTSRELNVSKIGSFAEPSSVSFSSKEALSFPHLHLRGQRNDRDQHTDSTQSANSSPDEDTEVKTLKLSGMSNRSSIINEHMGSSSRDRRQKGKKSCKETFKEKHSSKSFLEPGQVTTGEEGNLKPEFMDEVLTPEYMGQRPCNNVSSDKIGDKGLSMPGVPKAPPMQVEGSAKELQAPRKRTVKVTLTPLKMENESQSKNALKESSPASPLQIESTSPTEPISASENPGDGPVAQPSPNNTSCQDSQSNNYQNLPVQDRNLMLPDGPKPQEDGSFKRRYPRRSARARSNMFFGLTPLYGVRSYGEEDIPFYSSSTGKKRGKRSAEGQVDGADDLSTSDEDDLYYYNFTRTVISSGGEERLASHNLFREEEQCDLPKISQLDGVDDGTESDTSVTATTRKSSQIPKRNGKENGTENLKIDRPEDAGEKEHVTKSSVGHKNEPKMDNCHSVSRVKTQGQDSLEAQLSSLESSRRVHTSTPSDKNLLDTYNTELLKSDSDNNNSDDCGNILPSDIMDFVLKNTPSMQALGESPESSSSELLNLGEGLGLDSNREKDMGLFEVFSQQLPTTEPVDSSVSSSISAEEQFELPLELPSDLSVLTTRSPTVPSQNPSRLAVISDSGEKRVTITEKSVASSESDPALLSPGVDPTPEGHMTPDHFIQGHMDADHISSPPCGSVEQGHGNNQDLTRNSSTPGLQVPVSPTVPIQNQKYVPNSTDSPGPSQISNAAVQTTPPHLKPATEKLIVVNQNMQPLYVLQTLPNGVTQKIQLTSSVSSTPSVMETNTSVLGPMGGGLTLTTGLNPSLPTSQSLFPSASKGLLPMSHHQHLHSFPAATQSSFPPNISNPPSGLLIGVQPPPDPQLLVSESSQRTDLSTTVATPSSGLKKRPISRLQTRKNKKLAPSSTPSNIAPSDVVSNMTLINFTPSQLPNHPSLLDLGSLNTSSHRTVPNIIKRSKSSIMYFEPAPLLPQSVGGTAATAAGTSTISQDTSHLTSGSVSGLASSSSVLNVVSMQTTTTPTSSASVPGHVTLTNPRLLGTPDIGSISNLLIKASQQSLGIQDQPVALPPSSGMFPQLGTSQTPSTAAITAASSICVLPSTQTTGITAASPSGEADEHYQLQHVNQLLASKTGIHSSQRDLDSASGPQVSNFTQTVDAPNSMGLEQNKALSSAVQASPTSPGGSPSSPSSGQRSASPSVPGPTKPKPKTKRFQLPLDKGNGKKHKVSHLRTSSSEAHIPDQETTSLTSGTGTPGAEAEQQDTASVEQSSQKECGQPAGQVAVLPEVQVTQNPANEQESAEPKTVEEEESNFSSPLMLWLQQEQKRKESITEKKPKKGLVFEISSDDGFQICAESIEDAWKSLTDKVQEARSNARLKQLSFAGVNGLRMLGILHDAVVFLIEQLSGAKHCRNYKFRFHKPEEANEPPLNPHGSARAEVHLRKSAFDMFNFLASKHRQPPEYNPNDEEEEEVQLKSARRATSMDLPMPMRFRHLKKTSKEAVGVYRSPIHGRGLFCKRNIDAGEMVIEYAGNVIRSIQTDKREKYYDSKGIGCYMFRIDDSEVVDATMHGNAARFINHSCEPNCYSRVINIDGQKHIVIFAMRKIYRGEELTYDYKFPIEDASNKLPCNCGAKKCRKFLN"}, "source": "PubChem BioAssay AID1768", "about": "(National Center for Advancing Translational Sciences (NCATS), 2009)", "note": "Only a part is listed here, and it is no random draw. Records with an inconclusive call do not appear. Calls of active or inactive are those of the source. Calls follow the shape of the dose curve; as a rule, active = well fitted inhibition curve with a large enough effect in the polarisation, with a control signal flat (not every such curve was filed as active); inconclusive = small, poorly fitted or top-dose-only effect, or effect the other way, or a change in a side signal; inactive = no such curve, though single readings can be large or run the other way; the % refers to the polarisation."}
{"target": "Menin (Homo sapiens) (UniProt O00255)", "assay": "qHTS Assay for Inhibitors Targeting the Menin-MLL Interaction in MLL Related Leukemias: Competition With Texas Red Labeled MLL-derived Mutant Peptide; also: % of control where 0% means no effect", "conditions": "fluorescence polarization; at 61.6 µM (top of the series)"}
{"smiles": "COc1ccc(NC2CCN(C(=O)OC(C)(C)C)CC2)cc1", "FP activity change, negative = inhibition": "inactive: 0.964%"}
{"smiles": "CN1CCN(CCOC(=O)C(O)(c2ccccc2)c2ccccc2)CC1", "FP activity change, negative = inhibition": "inactive: -8.53%"}
{"smiles": "O=C(NCC1(N2CCOCC2)CCCCC1)c1cc(=O)[nH]c2ccccc12", "FP activity change, negative = inhibition": "inactive: -5.35%"}
{"smiles": "COc1cc(C(=O)NCC2(N3CCCCC3)CCCCC2)ccc1OC(F)F", "FP activity change, negative = inhibition": "inactive: 3.78%"}
{"smiles": "O=C(NCC1(N2CCCCC2)CCCCC1)c1cccc(C(F)(F)F)c1", "FP activity change, negative = inhibition": "inactive: 9.12%"}
{"smiles": "O=C(NCC1(N2CCCCC2)CCCCC1)c1cccc([N+](=O)[O-])c1", "FP activity change, negative = inhibition": "inactive: 4.83%"}
{"smiles": "CCN1CCC(Nc2ccc(Cl)cc2)CC1", "FP activity change, negative = inhibition": "inactive: -3.29%"}
{"smiles": "N#CC1(Nc2ccccc2)CCN(CCc2ccccc2)CC1", "FP activity change, negative = inhibition": "inactive: -8.94%"}
{"smiles": "O=C(NCC1(N2CCCCC2)CCCCC1)c1ccc(OC(F)F)cc1", "FP activity change, negative = inhibition": "inactive: -4.77%"}
{"smiles": "CCCOc1ccc(C(=O)NCC2(N(C)C)CCCCC2)cc1OC", "FP activity change, negative = inhibition": "inactive: -12.9%"}
{"smiles": "COc1cc(OC)c(C(=O)NCC2(N(C)C)CCCCC2)cc1OC", "FP activity change, negative = inhibition": "inactive: 12.7%"}
{"smiles": "CN(C)c1cccc(C(=O)NCC2(N3CCCCC3)CCCCC2)c1", "FP activity change, negative = inhibition": "inactive: 17.1%"}
{"smiles": "CC(C)c1ccc(NC2CCN(C(=O)OC(C)(C)C)CC2)cc1", "FP activity change, negative = inhibition": "inactive: -17.4%"}
{"smiles": "CCOC(=O)N1CCC(Nc2ccc(OC)cc2)CC1", "FP activity change, negative = inhibition": "inactive: -0.743%"}
{"smiles": "O=C(OC1CN2CCC1CC2)C1c2ccccc2Oc2ccccc21", "note": "(stereo not drawn)", "FP activity change, negative = inhibition": "inactive: -14.2%"}
{"smiles": "O=C(NCC1(N2CCOCC2)CCCCC1)c1cc2ccccc2o1", "FP activity change, negative = inhibition": "inactive: 0.343%"}
{"smiles": "CSc1ccccc1C(=O)NCC1(N2CCCCC2)CCCCC1", "FP activity change, negative = inhibition": "inactive: -18.2%"}
{"smiles": "O=C(NCC1(N2CCCCC2)CCCCC1)c1ccc(=O)[nH]c1", "FP activity change, negative = inhibition": "inactive: -0.792%"}
{"smiles": "COc1ccc(C(=O)NCC2(N3CCCCC3)CCCCC2)c(OC)c1OC", "FP activity change, negative = inhibition": "inactive: -14.3%"}
{"smiles": "CCOC(=O)N1CCC(Nc2cccc(C)c2)CC1", "FP activity change, negative = inhibition": "inactive: -7.16%"}
{"smiles": "COc1cc(C(=O)NCC2(N(C)C)CCCCC2)ccc1OC(F)F", "FP activity change, negative = inhibition": "inactive: -0.706%"}
{"smiles": "O=C(NCC1(N2CCCCC2)CCCCC1)c1ccc(F)cc1", "FP activity change, negative = inhibition": "inactive: -0.644%"}
{"smiles": "CCOC(=O)N1CCC(Nc2ccc(F)cc2)CC1", "FP activity change, negative = inhibition": "inactive: -15.7%"}
{"smiles": "COc1ccc(NC2CCN(CCc3ccccc3)CC2)c(OC)c1", "FP activity change, negative = inhibition": "inactive: -7.15%"}
{"smiles": "CN(C)c1ccc(C(=O)NCC2(N3CCCCC3)CCCCC2)cc1", "FP activity change, negative = inhibition": "inactive: 3.65%"}
{"smiles": "CCN1CCC(Nc2cccc(F)c2)CC1", "FP activity change, negative = inhibition": "inactive: 4.38%"}
{"smiles": "Fc1ccccc1NC1CCN(Cc2ccccc2)CC1", "FP activity change, negative = inhibition": "inactive: -1.43%"}
{"smiles": "CN1CCC(Nc2ccc(Cl)cc2)CC1", "FP activity change, negative = inhibition": "inactive: -3.06%"}
{"smiles": "CCC(CO)(C(=O)OC1CN2CCC1CC2)c1ccccc1", "note": "(stereo not drawn)", "FP activity change, negative = inhibition": "inactive: -0.418%"}
{"smiles": "COc1cc(OC)cc(C(=O)NCC2(N3CCOCC3)CCCCC2)c1", "FP activity change, negative = inhibition": "inactive: -2.87%"}
{"smiles": "CCCOc1ccc(C(=O)NCC2(N(C)C)CCCCC2)cc1", "FP activity change, negative = inhibition": "inactive: 8.32%"}
{"smiles": "CC(C)(C)OC(=O)N1CCC(Nc2ccccc2)CC1", "FP activity change, negative = inhibition": "inactive: -16.2%"}
{"smiles": "O=C(O)C1(Nc2ccccc2)CCN(Cc2ccccc2)CC1", "FP activity change, negative = inhibition": "inactive: -13.3%"}
{"smiles": "CCOc1ncccc1C(=O)NCC1(N2CCOCC2)CCCCC1", "FP activity change, negative = inhibition": "inactive: -0.737%"}
{"smiles": "CN1CCC(Nc2ccc(F)c(Cl)c2)CC1", "FP activity change, negative = inhibition": "inactive: 1.01%"}
{"smiles": "O=C(OC1CN2CCC1CC2)C1c2ccccc2C=Cc2ccccc21", "note": "(stereo not drawn)", "FP activity change, negative = inhibition": "inactive: -2.69%"}
{"smiles": "N/C(=N\\O)c1c(N)no[n+]1[O-]", "FP activity change, negative = inhibition": "inactive: -2.17%"}
{"smiles": "CCOC(=O)N1CCC(Nc2ccc(C)cc2)CC1", "FP activity change, negative = inhibition": "inactive: -25%"}
{"smiles": "COc1ccc(C(=O)NCC2(N3CCOCC3)CCCCC2)cc1OC", "FP activity change, negative = inhibition": "inactive: 3.74%"}
{"smiles": "c1ccc(CN2CCC(Nc3ccccc3)CC2)cc1", "FP activity change, negative = inhibition": "inactive: -9.63%"}
{"smiles": "CCCN1CCC(Nc2cc(OC)cc(OC)c2)CC1", "FP activity change, negative = inhibition": "inactive: -12.5%"}
{"smiles": "CN(C)C1(CNC(=O)c2cccc(C#N)c2)CCCCC1", "FP activity change, negative = inhibition": "inactive: -7.56%"}
{"smiles": "N#Cc1ccc(C(=O)NCC2(N3CCCCC3)CCCCC2)cc1", "FP activity change, negative = inhibition": "inactive: -11.7%"}
